Values quoted from earlier work, collected in US20060078562A1, “RAGE fusion proteins and methods of use” (priority 2004, published 2006).

Settings: cited from earlier work

B1: sRAGE: the RAGE protein that does not include the transmembrane region or the cytoplasmic tail; species not stated at the place (protein, listed as Homo sapiens)
chain: MAAGTAVGAWVLVLSLWGAVVGAQNITARIGEPLVLKCKGAPKKPPQRLEWKLNTGRTEAWKVLSPQGGGPWDSVARVLPNGSLFLPAVGIQDEGIFRCQAMNRNGKETKSNYRVRVYQIPGKPEIVDSASELTAGVPNKVGTCVSEGSYPAGTLSWHLDGKPLVPNEKGVSVKEQTRRHPETGLFTLQSELMVTPARGGDPRPTFSCSFSPGLPRHRALRTAPIQPRVWEPVPLEEVQLVVEPEGGAVAPGGTVTLTCEVPAQPSPQIHWMKDGVPLPLPPSPVLILPEIGPQDQGTYSCVATHSSHGPQESRAVSISIIEPGEEGPTAGSVGGSGLG
half-life in human plasma: only a few hours
